# Measurements from patent US9539298B2, “Lissencephaly therapeutic agent” (OSAKA CITY UNIVERSITY, priority 2010, dated 2017).
# Chains of the proteins cited; added tags and fusions are not shown.
# UniProt I3LQD3, entry or part of it: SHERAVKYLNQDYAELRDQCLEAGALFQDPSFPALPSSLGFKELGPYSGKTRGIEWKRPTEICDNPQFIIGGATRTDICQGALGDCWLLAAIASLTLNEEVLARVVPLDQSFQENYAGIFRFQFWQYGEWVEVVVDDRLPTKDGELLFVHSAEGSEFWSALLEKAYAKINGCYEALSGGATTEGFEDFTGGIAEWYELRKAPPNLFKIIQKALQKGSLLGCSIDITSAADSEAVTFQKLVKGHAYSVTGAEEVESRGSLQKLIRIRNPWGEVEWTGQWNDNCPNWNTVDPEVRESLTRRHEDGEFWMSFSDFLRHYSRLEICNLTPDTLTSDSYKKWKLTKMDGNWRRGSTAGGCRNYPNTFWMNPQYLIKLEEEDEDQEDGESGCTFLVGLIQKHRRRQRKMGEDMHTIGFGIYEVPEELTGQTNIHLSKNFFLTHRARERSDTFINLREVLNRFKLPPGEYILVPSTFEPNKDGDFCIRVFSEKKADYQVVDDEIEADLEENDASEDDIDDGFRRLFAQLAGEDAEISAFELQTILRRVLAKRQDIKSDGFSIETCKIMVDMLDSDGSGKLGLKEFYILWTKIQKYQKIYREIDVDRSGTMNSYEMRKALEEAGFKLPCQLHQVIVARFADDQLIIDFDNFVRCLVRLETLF
# Molecular target: m-calpain (derived from porcine kidney) (Sus scrofa, UniProt I3LQD3)
# Assay: Measurement of inhibitory activity against m-calpain
# Type: biochemical
# Details: casein substrate, 30° C., 60 minutes; read-out: enzyme inhibitory activities (μM) m-calpain
# Method: More specifically, 200 μL of a reaction solution containing 0.5 mg/mL casein, 50 mM Tris-HCl buffer (pH 7.4), 20 mM dithiothreitol and 1.0 nmol μ-calpain (derived from human red blood cells, Cosmo Bio Co., Ltd.) or m-calpain (derived from porcine kidney, Cosmo Bio Co., Ltd.) was added to individual 2.5 μL portions of DMSO solution containing a varying concentration of a test sample in a 96-well plate. Then, 50 μL of 20 mM aqueous calcium chloride was added thereto, and reaction was performed at 30° C. for 60 minutes. 100 μL of the reaction solution was transferred to another 96-well plate, and purified water (50 μL) and 50% aqueous solution (100 μL) of Protein Assay Dye Reagent (available from Bio-Rad Laboratories, Inc.; catalogue No. 500-600) were added thereto. […] The absorbance of a reaction mixture prepared in the same manner as mentioned above, except that a DMSO solution containing no sample was used as a control value; and the absorbance of a reaction mixture prepared in the same manner as mentioned above, except that a 1 mM aqueous EDTA solution (50 μL) was used in place of 20 mM aqueous calcium chloride, was used as a blank value. […] Inhibition rate (%){1−(measured value−blank test value)/(control value−blank test value)}×100
row,SMILES,IC50 [µM]
1,"CC(C)C[C@H](NC(=O)OC1CCOCC1)C(=O)N[C@@H](Cc1ccccc1)C(=O)C(=O)NC1CC1 [compound 6, ((1S)-1-((((1S)-1-Benzyl-3-cyclopropylamino-2,3-dioxopropyl)amino)carbonyl)-3-methylbutyl)carbamic acid tetrahydro-4H-pyran-4-yl ester]",0.13
2,"CCNC(=O)C(=O)[C@H](Cc1ccccc1)NC(=O)[C@H](CC(C)C)NC(=O)O[C@H]1CCOC1 [compound 2, ((1S)-1-((((1S)-1-Benzyl-2,3-dioxo-3-(ethylamino)propyl)amino)carbonyl)-3-methylbutyl)carbamic acid (3S)-tetrahydrofuran-3-yl ester]",0.11
3,"CC(C)C[C@H](NC(=O)O[C@H]1CCOC1)C(=O)N[C@@H](Cc1ccccc1)C(=O)C(=O)NC1CC1 [compound 5, ((1S)-1-((((1S)-1-Benzyl-3-(cyclopropylamino)-2,3-dioxopropyl)amino)carbonyl)-3-methylbutyl)carbamic acid (3S)-tetrahydrofuran-3-yl ester]",0.05
4,"CCNC(=O)C(=O)[C@H](Cc1ccccc1)NC(=O)[C@H](CC(C)C)NC(=O)OCCOC [compound 1, ((1S)-1-((((1S)-1-Benzyl-2,3-dioxo-3-(ethylamino)propyl)amino)carbonyl)-3-methylbutyl) carbamic acid 2-methoxyethyl ester]",0.11
5,"COCCOC(=O)N[C@@H](CC(C)C)C(=O)N[C@@H](Cc1ccccc1)C(=O)C(=O)NC1CCC1 [compound 8, ((1S)-1-((((1S)-1-Benzyl-2,3-dioxo-3-(cyclobutylamino)propyl)amino)carbonyl)-3-methylbutyl)carbamic acid 2-methoxyethyl ester]",0.08
6,"CCCCNC(=O)C(=O)[C@H](Cc1ccccc1)NC(=O)[C@H](CC(C)C)NC(=O)OCCOC [compound 9, ((1S)-1-((((1S)-1-Benzyl-3-butylamino-2,3-dioxopropyl)amino)carbonyl)-3-methylbutyl)carbamic acid 2-methoxyethyl ester]",0.14
7,"CCNC(=O)C(=O)[C@H](Cc1ccccc1)NC(=O)[C@H](CC(C)C)NC(=O)OC1CCOCC1 [compound 3, ((1S)-1-((((1S)-1-Benzyl-2,3-dioxo-3-(ethylamino)propyl)amino)carbonyl)-3-methylbutyl)carbamic acid tetrahydro-4H-pyran-4-yl ester]",0.16
8,"CCCNC(=O)C(=O)[C@H](Cc1ccccc1)NC(=O)[C@H](CC(C)C)NC(=O)OCCOC [compound 7, ((1S)-1-((((1S)-1-Benzyl-2,3-dioxo-3-(propylamino)propyl)amino)carbonyl)-3-methylbutyl)carbamic acid 2-methoxyethyl ester]",0.07

# Continued, values first:
row,IC50 [µM],SMILES
1,0.11,"COCCNC(=O)C(=O)[C@H](Cc1ccccc1)NC(=O)[C@H](CC(C)C)NC(=O)OCCOC [compound 12, ((1S)-1-((((1S)-1-Benzyl-2,3-dioxo-3-(2-methoxyethylamino)propyl)amino)carbonyl)-3-methylbutyl)carbamic acid 2-methoxyethyl ester]"
2,0.017,"CC(C)C[C@H](NC(=O)OCCc1ccccn1)C(=O)N[C@@H](Cc1ccccc1)C(=O)C(=O)NC1CC1 [compound 24, ((1S)-1-((((1S)-1-Benzyl-3-(cyclopropylamino)-2,3-dioxopropyl)amino)carbonyl)-3-methylbutyl)carbamic acid 2-(pyridin-2-yl)ethyl ester]"
3,0.11,"COCCOC(=O)N[C@@H](CC(C)C)C(=O)N[C@@H](CC(C)C)C(=O)C(=O)NCCOc1ccccc1 [compound 21, ((1S)-1-((((1S)-2,3-Dioxo-1-(2-methylpropyl)-3-(2-phenoxyethyl)aminopropyl)amino)carbonyl)-3-methylbutyl)carbamic acid 2-methoxyethyl ester]"
4,0.1,CC(C)C[C@H](NC(=O)O[C@H]1CCOC1)C(=O)N[C@@H](CCc1ccccc1)C(=O)C(=O)NC1CC1 [compound 16]
5,0.16,"COCCOCCOC(=O)N[C@@H](CC(C)C)C(=O)N[C@@H](CC(C)C)C(=O)C(=O)NCCOc1ccccc1 [compound 22, ((1S)-1-((((1S)-2,3-Dioxo-1-(2-methylpropyl)-3-(2-phenoxyethyl)aminopropyl)amino)carbonyl)-3-methylbutyl) carbamic acid 5-methoxy-3-oxapentyl ester]"
6,0.18,"COCCOCCOC(=O)N[C@@H](CC(C)C)C(=O)NC(Cc1ccccc1)C(=O)C(N)=O (mixture of isomers) [compound 23, ((1S)-1-((((1RS)-3-Amino-1-benzyl-2,3-dioxopropyl)amino)carbonyl)-3-methylbutyl)carbamic acid 5-methoxy-3-oxapentyl ester]"
7,0.12,"COCCOC(=O)N[C@@H](CC(C)C)C(=O)N[C@@H](Cc1ccccc1)C(=O)C(=O)NC1Cc2ccccc2C1 [compound 11, ((1S)-1-((((1S)-1-Benzyl-2,3-dioxo-3-(2-indanylamino)propyl)amino)carbonyl)-3-methylbutyl)carbamic acid 2-methoxyethyl ester]"
8,0.2,"CCNC(=O)C(=O)[C@H](CCc1ccccc1)NC(=O)[C@H](CC(C)C)NC(=O)O[C@H]1CCOC1 [compound 14, ((1S)-1-((((1S)-2,3-Dioxo-3-ethylamino-1-(phenylethyl)propyl)amino)carbonyl)-3-methylbutyl)carbamic acid (3S)-tetrahydrofuran-3-yl ester]"
9,0.34,"COCCOC(=O)N[C@@H](CC(C)C)C(=O)N[C@@H](Cc1ccccc1)C(=O)C(=O)NCC(F)(F)F [compound 10, ((1S)-1-((((1S)-1-Benzyl-2,3-dioxo-3-(2,2,2-trifluoroethylamino)propyl)amino)carbonyl)-3-methylbutyl)carbamic acid 2-methoxyethyl ester]"
10,0.2,"CCNC(=O)C(=O)[C@H](CCc1ccccc1)NC(=O)[C@H](CC(C)C)NC(=O)OCCOC [compound 13, ((1S)-1-((((1S)-2,3-Dioxo-3-ethylamino-1-(phenylethyl)propyl)amino)carbonyl)-3-methylbutyl)carbamic acid 2-methoxyethyl ester]"
11,0.14,"COCCOC(=O)N[C@@H](CC(C)C)C(=O)N[C@@H](CCc1ccccc1)C(=O)C(=O)NC1CC1 [compound 15, ((1S)-1-((((1S)-2,3-Dioxo-3-cyclopropylamino-1-(phenylethyl)propyl)amino)carbonyl)-3-methylbutyl)carbamic acid 2-methoxyethyl ester]"
